# From patent publication US8835501B2, “Pharmaceutical formulations of HDAC inhibitors” (TopoTarget UK Limited, priority 2005, dated 2014)
# Key:
# [1] = Phase solubility for arginine and meglumine
# [2] = Solubility enhancement with acidic and basic in situ salt formers (~0.16 M)
pH of Solution ([2]; PXD-101 in acidic in situ salt former),Structure (SMILES),parts of salt former required to dissolve 1 part of HDACi (PXD-101) [1],"pH of saturated HDACi solution ([1]; basic salt ×0.5, 0.079 M)",pH of Solution ([2]; PXD-101 in basic in situ salt former)
–,"CNC[C@H](O)[C@@H](O)[C@H](O)[C@H](O)CO [Meglumine, 1-deoxy-1-(methylamino)-D-glucitol]",approximately 1.6 parts,9.22,9.22
1.35,CS(=O)(=O)O [Methanesulphonic Acid],–,–,–
